Test results reported in ChEMBL document CHEMBL1129946, “New esters of 4-amino-5-chloro-2-methoxybenzoic acid as potent agonists and antagonists for 5-HT4 receptors” (J Med Chem, 1997).

Amino acid sequences for entries named in this document (tags omitted). A change or cut given only in a name is not applied to a line headed by its entry.
UniProt Q62758: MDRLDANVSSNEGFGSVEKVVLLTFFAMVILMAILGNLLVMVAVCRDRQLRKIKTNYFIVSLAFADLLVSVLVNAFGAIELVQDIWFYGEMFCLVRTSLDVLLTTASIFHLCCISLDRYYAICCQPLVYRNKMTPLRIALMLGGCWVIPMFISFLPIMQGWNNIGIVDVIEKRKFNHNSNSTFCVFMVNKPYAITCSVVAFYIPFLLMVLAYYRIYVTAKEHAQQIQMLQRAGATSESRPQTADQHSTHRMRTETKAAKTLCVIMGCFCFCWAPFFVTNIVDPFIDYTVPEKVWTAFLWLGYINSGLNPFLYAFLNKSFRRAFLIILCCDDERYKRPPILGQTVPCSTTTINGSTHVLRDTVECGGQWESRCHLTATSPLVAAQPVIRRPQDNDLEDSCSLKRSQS

Target: 5-hydroxytryptamine receptor 4 (Rattus norvegicus, UniProt Q62758)
Test: Binding affinity towards 5-hydroxytryptamine 4 receptor was determined in rat striatal membranes using [3H]GR-113808 as radioligand
Type: cell membranes, Striatum, Membrane

CCN(CC)CCNC(=O)c1cc(Cl)c(N)cc1OC [METOCLOPRAMIDE]
Ki: > 1000 nM

NCCc1c[nH]c2ccc(O)cc12 [SEROTONIN]
Ki: 187 nM
